Results on five molecules are retold here after patent US10280144B2, “Pyridazine derivatives as RORc modulators” (Genentech, Inc., priority 2015, dated 2019).

Amino acid sequences for entries named in this document (tags omitted). Residues count along the entry.
UniProt P51449, 269-508: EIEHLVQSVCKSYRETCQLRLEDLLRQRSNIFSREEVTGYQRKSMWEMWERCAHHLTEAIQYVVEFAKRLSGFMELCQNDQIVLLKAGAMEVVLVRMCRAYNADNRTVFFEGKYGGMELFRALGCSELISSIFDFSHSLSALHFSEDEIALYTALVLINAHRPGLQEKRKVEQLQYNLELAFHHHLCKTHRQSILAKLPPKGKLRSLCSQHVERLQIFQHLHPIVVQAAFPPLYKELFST

The structures appear in SMILES notation.

This assay deals with RORc ligand binding domain (Homo sapiens (Human), UniProt P51449). As to the kind of experiment: In Vitro RORc Ligand Binding Assay. The settings on record: radioligand 25-[3H]hydroxycholesterol.
As a reminder, the IC50 is the concentration that inhibits the measured activity by half. The low end stands for inhibition by little substance, the high end for a need for much substance. For `CC1(C)[C@H]2CC[C@]1(CN(CC(F)F)C(=O)c1coc(CS(C)(=O)=O)n1)c1nnc(-c3c(F)cccc3F)cc12` [Compound 181, N-(2,2-difluoroethyl)-N-[[(1S,8R)-5-(2,6-difluorophenyl)-11,11-dimethyl-3,4-diazatricyclo[6.2.1.02,7]undeca-2(7),3,5-trien-1-yl]methyl]-2-(methylsulfonylmethyl)oxazole-4-carboxamide], the concentration for half-maximal inhibition (IC50) was 0.045 µM.
With `CC1(C)[C@H]2CC[C@]1(CN(CC1CC1)C(=O)c1coc(CS(C)(=O)=O)n1)c1nnc(-c3c(F)cccc3F)cc12` [Compound 183, N-(cyclopropylmethyl)-N-[[(1S,8R)-5-(2,6-difluorophenyl)-11,11-dimethyl-3,4-diazatricyclo[6.2.1.02,7]undeca-2(7),3,5-trien-1-yl]methyl]-2-(methylsulfonylmethyl)oxazole-4-carboxamide] the figure was 0.057 µM.
With `CCN(C[C@@]12CC[C@@H](c3cc(-c4c(F)cccc4F)nnc31)C2(C)C)C(=O)c1ccc(CS(C)(=O)=O)nn1` [Compound 188, N-[[(1S,8R)-5-(2,6-difluorophenyl)-11,11-dimethyl-3,4-diazatricyclo[6.2.1.02,7]undeca-2,4,6-trien-1-yl]methyl]-N-ethyl-6-(methylsulfonylmethyl)pyridazine-3-carboxamide] the figure was 0.0045 µM; with `CCN(C[C@@]12CC[C@@H](c3cc(-c4c(F)cccc4F)nnc31)C2(C)C)C(=O)c1cc(C(C)(C)O)n[nH]1` [Compound 189, N-[[(1S,8R)-5-(2,6-difluorophenyl)-11,11-dimethyl-3,4-diazatricyclo[6.2.1.02,7]undeca-2,4,6-trien-1-yl]methyl]-N-ethyl-3-(1-hydroxy-1-methyl-ethyl)-1H-pyrazole-5-carboxamide], 0.038 µM.
In turn, `CCN(C[C@@]12CC[C@@H](c3cc(-c4c(F)cccc4F)nnc31)C2(C)C)C(=O)CN1CC(O)C1` [Compound 209, N-[[(1 S,8R)-5-(2,6-difluorophenyl)-11,11-dimethyl-3,4-diazatricyclo[6.2.1.02,7]undeca-2,4,6-trien-1-yl]methyl]-N-ethyl-2-(3-hydroxyazetidin-1-yl)acetamide] returned an IC50 of 0.015 µM.
